# US20080009551A1, “Methods and Compositions for Identifying Modulators of G Protein-Coupled Receptors” (Arena Pharmaceuticals, Inc., priority 2003, published 2008)
# The chains behind the UniProt entries cited, without tags or fusion partners. A line that says so, or that is headed by a name, gives the form on record, which may keep a tag or linker.
# UniProt P08483, with tags, fused parts or gaps: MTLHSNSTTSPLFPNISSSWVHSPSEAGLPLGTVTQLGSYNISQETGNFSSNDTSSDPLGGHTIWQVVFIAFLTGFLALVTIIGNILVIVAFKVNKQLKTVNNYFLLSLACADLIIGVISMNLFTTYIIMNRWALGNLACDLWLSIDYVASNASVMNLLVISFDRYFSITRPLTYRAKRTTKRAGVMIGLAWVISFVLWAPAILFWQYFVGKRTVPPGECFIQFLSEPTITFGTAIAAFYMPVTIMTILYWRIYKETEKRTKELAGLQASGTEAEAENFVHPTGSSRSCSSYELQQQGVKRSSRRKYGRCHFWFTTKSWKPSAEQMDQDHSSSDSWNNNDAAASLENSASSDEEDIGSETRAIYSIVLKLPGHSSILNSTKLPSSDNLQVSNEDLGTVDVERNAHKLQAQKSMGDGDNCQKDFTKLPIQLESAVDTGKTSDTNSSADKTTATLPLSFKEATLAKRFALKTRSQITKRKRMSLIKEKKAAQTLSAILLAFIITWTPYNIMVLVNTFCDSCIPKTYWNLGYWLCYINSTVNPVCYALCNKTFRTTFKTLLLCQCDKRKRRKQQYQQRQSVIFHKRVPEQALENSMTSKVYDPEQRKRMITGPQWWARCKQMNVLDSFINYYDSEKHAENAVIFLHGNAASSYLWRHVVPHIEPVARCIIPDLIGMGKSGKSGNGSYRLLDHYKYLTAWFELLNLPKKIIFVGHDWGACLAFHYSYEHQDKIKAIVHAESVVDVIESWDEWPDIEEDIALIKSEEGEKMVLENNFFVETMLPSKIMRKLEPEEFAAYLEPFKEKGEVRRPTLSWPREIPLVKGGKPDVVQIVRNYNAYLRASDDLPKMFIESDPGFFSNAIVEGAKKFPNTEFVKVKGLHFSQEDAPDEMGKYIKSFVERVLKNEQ
# Target: Rm3-Rlu (Rattus norvegicus, UniProt P08483)
# Settings: similar treatment (1 μM, 20 h), wild-type receptor Rm3-Rlu
smiles,measurement,value
CN1[C@@H]2CC[C@H]1C[C@@H](OC(=O)C(CO)c1ccccc1)C2 (stereo partly shown) [atropine],effect on [3H]NMS binding sites,no significant effect
